Data: patent US20100009907A1, “Glucagon-Like Peptides and Uses Thereof” (AMYLIN PHARMACEUTICALS, INC., priority 2006, published 2010)

How the values were obtained:
[1] = biological target: T1, RINm5f cells expressing endogenous GLP-1, calcitonin, and GIP receptors (Rattus norvegicus, UniProt P32301); experiment: GLP/GIP/CT cAMP (RIN) assay; format: cell-based
T1 construct: RINm5f cells expressing endogenous GLP-1, calcitonin, and GIP receptors; endogenous in cells; host or cells: RINm5f cells
T1 sequence (P32301 22-463): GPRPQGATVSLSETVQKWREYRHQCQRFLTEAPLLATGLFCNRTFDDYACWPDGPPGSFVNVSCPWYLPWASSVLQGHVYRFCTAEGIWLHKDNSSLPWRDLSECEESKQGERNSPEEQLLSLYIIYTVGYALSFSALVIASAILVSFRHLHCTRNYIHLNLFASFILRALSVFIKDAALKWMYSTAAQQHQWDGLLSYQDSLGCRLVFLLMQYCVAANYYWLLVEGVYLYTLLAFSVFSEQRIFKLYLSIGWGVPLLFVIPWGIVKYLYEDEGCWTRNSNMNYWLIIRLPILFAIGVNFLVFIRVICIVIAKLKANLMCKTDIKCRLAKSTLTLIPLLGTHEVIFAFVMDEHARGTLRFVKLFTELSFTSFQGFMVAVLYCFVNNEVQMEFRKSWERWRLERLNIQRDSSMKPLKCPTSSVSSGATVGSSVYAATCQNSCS
Experimental: In addition, receptor binding can be measured using cells prepared from confluent cultures of RINm5f cells expressing endogenous GLP-1, calcitonin, and GIP receptors. Cells, and peptide or buffer solution are combined in 384-well plates. After a 30-minute incubation at room temperature in air, cAMP content is measured as recommended in the Perkin-Elmer AlphaScreen kit instructions.
(§1) Cells, and peptide or buffer solutions are combined in 384-well plates and incubated at room temperature in air for 30-minutes. cAMP content can then be measured according to recommendations in the Perkin-Elmer AlphaScreen™ kit instructions using the Perkin Elmer Fusion fluorimeter and data are analyzed using XLfit software (IDBS).

[2] = Acute food intake assay (FI Assay); format: in vivo, NIH/Swiss mice; conditions: 1000 μg/kg intraperitoneal, relative to vehicle
Experimental: The effect of various test peptides on food intake is investigated using an acute food intake assay. This assay measures food consumption in lean, group-housed, overnight-fasted NIH/Swiss mice. Twelve mice are housed three to a cage. […] Decreased, as well as increased, food intake is measured. Testing of the various doses of the polypeptide generates ED50s.
Female NIH/Swiss mice (8-24 weeks old) are group housed with a 12:12 hour light:dark cycle with lights on at 0600. Water and a standard pelleted mouse chow diet are available ad libitum, except as noted. Animals are fasted starting at approximately 1500 hrs, 1 day prior to experiment. The morning of the experiment, animals are divided into experimental groups.
At time=0 min, all animals are given an intraperitoneal injection of vehicle or compound in an amount ranging from about 63 to 1000 μg/kg, and immediately given a pre-weighed amount (10-15 g) of the standard chow.

[3] = biological target: T2, rat thyroid carcinoma 6-23 clone 6 cells expressing endogenous GLP-1 receptors (Rattus norvegicus, UniProt P32301); experiment: GLP-1 cAMP (6-23) cyclase assay; format: cell-based
T2 construct: rat thyroid carcinoma 6-23 clone 6 cells or RINm5F insulinoma cells expressing endogenous GLP-1 receptors; endogenous in cells; host or cells: rat thyroid carcinoma 6-23 clone 6 cells
T2 sequence (P32301 22-463): T1 sequence (P32301 22-463)
Experimental: as §1

GLP/GIP/CT cAMP(RIN) EC50 [1]: 146 pM
EC50 [3]: 120 pM
SMILES: CC[C@H](NC(=O)[C@@H](N)Cc1c[nH]cn1)C(=O)N[C@@H](CCC(=O)O)C(=O)NCC(=O)N[C@H](C(=O)N[C@@H](Cc1ccc(O)cc1)C(=O)N[C@H](C(=O)N[C@@H](CC(N)=O)C(=O)N[C@@H](CC(=O)O)C(=O)N[C@H](C(=O)N[C@H](C(=O)N[C@@H](CCC(N)=O)C(=O)N[C@@H](Cc1ccccc1)C(=O)N[C@@H](CC(C)C)C(=O)N[C@@H](CCC(=O)O)C(=O)N[C@@H](CCC(=O)O)C(=O)N[C@@H](CCCCN)C(=O)N[C@@H](C)C(=O)N[C@@H](C)C(=O)N[C@@H](CCCCN)C(=O)N[C@@H](CCC(=O)O)C(=O)N[C@@H](Cc1ccccc1)C(=O)N[C@H](C(=O)N[C@@H](CC(=O)O)C(=O)N[C@@H](Cc1c[nH]c2ccccc12)C(=O)N[C@@H](CC(C)C)C(=O)N[C@H](C(=O)N[C@@H](CCCCN)C(=O)NCC(=O)N[C@@H](CCCCN)C(=O)N1CCC[C@H]1C(=O)N[C@@H](CCCCN)C(=O)N[C@@H](CCCCN)C(=O)N[C@@H](CCC(N)=O)C(=O)N[C@@H](CCCNC(=N)N)C(=O)N[C@@H](CC(C)C)C(=O)N[C@@H](CO)C(N)=O)[C@@H](C)CC)[C@@H](C)CC)[C@@H](C)O)C(C)C)[C@@H](C)O)[C@@H](C)O [compound 53]
Food Intake % inhibition 30 min ([2]; 30 min): 40%
Food Intake % inhibition 60 min ([2]; 60 min): 44%
Food Intake % inhibition 120 min ([2]; 120 min): 50%
Food Intake % inhibition 180 min ([2]; 180 min): 34%
